The values that follow are results of earlier work, collected in paper PMC7717710, “Synthesis, computational studies and assessment of in vitro inhibitory activity of umbelliferon-based compounds against tumour-associated carbonic anhydrase isoforms IX and XII” (Journal of Enzyme Inhibition and Medicinal Chemistry, 2020).

By UniProt entry, the sequences of proteins in these tests, tags left out. Where a name states a change or a piece, a line headed by the entry shows the natural chain unless it says otherwise.
UniProt P00915: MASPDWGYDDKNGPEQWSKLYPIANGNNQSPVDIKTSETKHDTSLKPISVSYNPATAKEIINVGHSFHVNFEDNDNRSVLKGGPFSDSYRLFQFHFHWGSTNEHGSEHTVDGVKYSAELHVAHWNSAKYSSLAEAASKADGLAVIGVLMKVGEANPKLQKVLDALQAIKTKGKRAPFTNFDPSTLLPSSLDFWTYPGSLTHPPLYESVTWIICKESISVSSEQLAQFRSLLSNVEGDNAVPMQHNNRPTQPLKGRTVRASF

The target of one data set is T1, hCA I (Homo sapiens, UniProt P00915).
T1 construct: made in house
Also on record: method as in PMID 29197732. Conditions: reference compounds; read-out: Inhibition data (Ki) hCA I; cited from earlier work.

For a further data set, the target named is T2, hCA II (Homo sapiens, UniProt P00918).
T2 construct: made in house
Also on record: method as in PMID 29197732. Conditions: reference compounds; read-out: Inhibition data (Ki) hCA II; cited from earlier work.

Turning to `O=c1ccc2ccc(O)cc2o1` [Umbelliferon, 7-hydroxy-2H-chromen-2-one], the inhibition constant (Ki) on hCA I and on hCA II was more than 10 µM each time.
